From patent US20120135931A1 (priority 2009, published 2012) come the findings set out here.

The test has as its target human plasma derived thrombin (human), P00734.

B1: DV24 (peptide)
peptide: DVAEPKMHKTAPPFDFEAIPEEYL
modifications: not checked
B1 yielded a Ki of 0.306 nM.
